Results from publication PMC4209162, “Specific aromatic foldamers potently inhibit spontaneous and seeded Aβ42 and Aβ43 fibril assembly” (Biochemical Journal, 2014).

Amino acid sequences for entries named in this document (tags omitted). A change or cut given only in a name is not applied to a line headed by its entry.
UniProt P05453: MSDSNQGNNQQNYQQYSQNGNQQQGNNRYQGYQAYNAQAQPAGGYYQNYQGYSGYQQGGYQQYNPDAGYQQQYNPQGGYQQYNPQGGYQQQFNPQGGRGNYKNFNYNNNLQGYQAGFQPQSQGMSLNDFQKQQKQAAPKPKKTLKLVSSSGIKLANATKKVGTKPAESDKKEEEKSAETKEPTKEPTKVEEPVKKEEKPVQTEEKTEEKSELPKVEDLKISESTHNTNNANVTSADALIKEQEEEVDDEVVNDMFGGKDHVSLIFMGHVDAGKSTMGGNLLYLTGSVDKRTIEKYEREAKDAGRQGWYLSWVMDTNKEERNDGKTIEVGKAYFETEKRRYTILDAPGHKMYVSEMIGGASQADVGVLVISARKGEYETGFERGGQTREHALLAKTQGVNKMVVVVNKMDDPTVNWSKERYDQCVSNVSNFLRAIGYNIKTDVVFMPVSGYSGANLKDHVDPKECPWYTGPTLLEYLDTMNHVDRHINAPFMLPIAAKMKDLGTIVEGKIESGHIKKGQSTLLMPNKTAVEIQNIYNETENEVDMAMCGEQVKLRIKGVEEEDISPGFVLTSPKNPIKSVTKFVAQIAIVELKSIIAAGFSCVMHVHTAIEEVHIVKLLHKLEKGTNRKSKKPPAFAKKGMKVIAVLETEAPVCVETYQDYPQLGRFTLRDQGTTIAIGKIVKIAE

Biological target: prion domain, NM, of yeast Sup35 (Saccharomyces cerevisiae, UniProt P05453)
Assay: Spontaneous NM fibrillization (ThT fluorescence)
Details: NM 5 μM, foldamer 20 μM, 4 h; for Inhibition of NM fibrillization: 25°C, ThT

Row | Substance | Inhibition of NM fibrillization | ThT fluorescence of NM fibrils formed in presence of foldamer (compared with NM alone)
1 | Sal-(Lys-Sal)3-CONH2 | did not inhibit NM fibrillization | 
2 | (Arg-Benz)4-CONH2 | did not inhibit NM fibrillization | greater ThT fluorescence
3 | Ac-Sal-(Lys-Sal)3-CONH2 | did not inhibit NM fibrillization | 
